Among the data in US20160106814A1, “Novel Oral Pharmaceutical Composition for Treatment of Diabetes” (NOVO NORDISK A/S, priority 2013, published 2016) are Papp A→B values, retold here.

The structures appear in SMILES notation.

A short description of the data set: Transport of GLP-1 peptide across mucus-producing E12 cell monolayers in the presence of sodium caprate and BBI. The format is in vitro ADME. Particulars: pH 7.4, apical to basolateral. The procedure:
Buffer was then removed and the experiment initiated. […] Receiver samples (200 μl) were taken every 15 min.
In all samples with GLP-1 peptide and mannitol, the concentration of GLP-1 peptide was determined using a LOCI assay (or LC-MS assay) and scintillation counter, respectively.

Where [1] appears, read: 100 μM GLP-1 peptide + 13 mM sodium caprate + 0.2% BBI.
Setting [2] is: 100 μM GLP-1 peptide + 13 mM sodium caprate, without BBI.

The Papp A→B is the apparent permeability from the apical to the basolateral side of a cell layer. Take `CC[C@H](C)[C@H](NC(=O)[C@H](Cc1ccccc1)NC(=O)[C@H](CCC(=O)O)NC(=O)[C@H](CCCCNC(=O)[C@@H](N)CCCCNC(=O)[C@@H](N)CCCCNC(=O)CC[C@H](NC(=O)CCCCCCCCCCCCCCC(=O)O)C(=O)O)NC(=O)[C@H](C)NC(=O)[C@H](C)NC(=O)[C@H](CCC(N)=O)NC(=O)CNC(=O)[C@H](CCC(=O)O)NC(=O)[C@H](CC(C)C)NC(=O)[C@H](Cc1ccc(O)cc1)NC(=O)[C@H](CO)NC(=O)[C@H](CO)NC(=O)[C@@H](NC(=O)[C@H](CC(=O)O)NC(=O)[C@H](CO)NC(=O)[C@@H](NC(=O)[C@H](Cc1ccccc1)NC(=O)[C@@H](NC(=O)CNC(=O)[C@H](CCC(=O)O)NC(=O)C(C)(C)NC(=O)[C@@H](N)Cc1c[nH]cn1)[C@@H](C)O)[C@@H](C)O)C(C)C)C(=O)N[C@@H](C)C(=O)N[C@@H](Cc1c[nH]c2ccccc12)C(=O)N[C@@H](CC(C)C)C(=O)N[C@H](C(=O)N[C@@H](CCCNC(=N)N)C(=O)NCC(=O)N[C@@H](CCCNC(=N)N)C(=O)N[C@@H](CCCCNC(=O)[C@@H](N)CCCCNC(=O)[C@@H](N)CCCCNC(=O)CC[C@H](NC(=O)CCCCCCCCCCCCCCC(=O)O)C(=O)O)C(=O)O)C(C)C` [GLP-1 peptide 3, N{Epsilon-26}-[(2S)-2-amino-6-[[(2S)-2-amino-6-[[(4S)-4-carboxy-4-(15-carboxypentadecanoylamino)butanoyl]amino]hexanoyl]amino]hexanoyl], N{Epsilon-37}-[(2S)-2-amino-6-[[(2S)-2-amino-6-[[(4S)-4-carboxy-4-(15-carboxypentadecanoylamino)butanoyl]-amino]hexanoyl]amino]hexanoyl]-[Aib8,Arg34,Lys37]-GLP-1-(7-37)-peptide]: the Papp A→B turned out to be 0.125 ×10⁻⁶ cm/s under setting [1] and 0.0907 ×10⁻⁶ cm/s under setting [2].

For the molecule `CC[C@H](C)[C@H](NC(=O)[C@H](Cc1ccccc1)NC(=O)[C@H](CCC(=O)O)NC(=O)[C@H](CCCCNC(=O)COCCOCCNC(=O)CC[C@H](NC(=O)COCCOCCNC(=O)CCCCCCCCCCCCC(=O)O)C(=O)O)NC(=O)[C@H](C)NC(=O)[C@H](C)NC(=O)[C@H](CCC(N)=O)NC(=O)CNC(=O)[C@H](CCC(=O)O)NC(=O)[C@H](CC(C)C)NC(=O)[C@H](Cc1ccc(O)cc1)NC(=O)[C@H](CO)NC(=O)[C@H](CO)NC(=O)[C@@H](NC(=O)[C@H](CC(=O)O)NC(=O)[C@H](CO)NC(=O)[C@@H](NC(=O)[C@H](Cc1ccccc1)NC(=O)[C@@H](NC(=O)CNC(=O)[C@H](CCC(=O)O)NC(=O)C(C)(C)NC(=O)[C@@H](N)Cc1c[nH]cn1)[C@@H](C)O)[C@@H](C)O)C(C)C)C(=O)N[C@@H](C)C(=O)N[C@@H](Cc1c[nH]c2ccccc12)C(=O)N[C@@H](CC(C)C)C(=O)N[C@H](C(=O)N[C@@H](CCCNC(=N)N)C(=O)NCC(=O)N[C@@H](CCCNC(=N)N)C(=O)N[C@@H](CCCCNC(=O)COCCOCCNC(=O)CC[C@H](NC(=O)COCCOCCNC(=O)CCCCCCCCCCCCC(=O)O)C(=O)O)C(=O)O)C(C)C` [GLP-1 peptide 10, N{Epsilon-26}-[2-[2-[2-[[(4S)-4-carboxy-4-[[2-[2-[2-(13-carboxytridecanoylamino)ethoxy]ethoxy]acetyl]amino]butanoyl]amino]ethoxy]ethoxy]acetyl], N {Epsilon-37}-[2-[2-[2-[[(4S)-4-carboxy-4-[[2-[2-[2-(13-carboxytridecanoylamino)ethoxy]-ethoxy]acetyl]amino]butanoyl]amino]ethoxy]ethoxy]acetyl]-[Aib8,Arg34, Lys37]-GLP-1-(7-37)-peptide], the apical-to-basolateral permeability (Papp A→B) reads like this: under setting [1], 0.51 ×10⁻⁶ cm/s; under setting [2], 0.276 ×10⁻⁶ cm/s.
